Results as given in patent publication US20170251943A1, “Systems Level State Characteristics in Experimental Treatment of Disease” (priority 2014, published 2017).

Tested on: rats
Assay: CNS state characterization (LFP PSDs, diencephalic/telencephalic structures) in pharmacological psychosis-like states
Type: in vivo, rat

SMILES | LFP power spectra, MK-801 treated state versus Baseline (FIG. 7) | LFP power spectra of the drug-induced psychosis-like state (Hippocampus, Nucleus Accumbens, Thalamus, pink noise normalized, FIG. 6)
C[C@]12N[C@H](Cc3ccccc31)c1ccccc12 [MK-801] | could be differentiated from Baseline conditions | –
CNC1(c2ccccc2Cl)CCCCC1=O (centres unmarked) [Ketamine] | – | high-frequency narrow band oscillation in n. Accumbens
